Amino acid sequences for entries named in this document (tags omitted). Residues count along the entry.
UniProt P25774, 115-331: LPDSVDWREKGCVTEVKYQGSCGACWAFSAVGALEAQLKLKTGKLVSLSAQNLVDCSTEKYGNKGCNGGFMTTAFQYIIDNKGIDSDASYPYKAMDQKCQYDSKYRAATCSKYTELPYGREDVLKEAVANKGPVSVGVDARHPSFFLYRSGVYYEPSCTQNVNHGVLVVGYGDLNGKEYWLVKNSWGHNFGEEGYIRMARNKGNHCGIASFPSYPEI

According to patent publication US20090099157A1, “TETRAHYDRO-PYRAZOLO-PYRIDINE THIOETHER MODULATORS OF CATHEPSIN S” (priority 2007, published 2009):

Biological target: Recombinant human cathepsin S (CatS) (Homo sapiens, UniProt P25774)
Test: biochemical

| pIC50 | Compound |
| --- | --- |
| 6.27 | CC(C)(C)OC(=O)N1CCC(CC(=O)N2CCc3c(c(-c4ccc(C(F)(F)F)c(SCCN5CCCC5)c4)nn3CC(O)CN3CCC(NC(=O)CO)CC3)C2)CC1 (stereo not drawn) [Example 895, 1,1-Dimethylethyl 4-{2-[1-(2-hydroxy-3-{4-[(hydroxyacetyl)amino]piperidin-1-yl}propyl)-3-{3-[(2-pyrrolidin-1-ylethyl)sulfanyl]-4-(trifluoromethyl)phenyl}-1,4,6,7-tetrahydro-5H-pyrazolo[4,3-c]pyridin-5-yl]-2-oxoethyl}piperidine-1-carboxylate] |
| 6.82 | CS(=O)(=O)N1CCc2c(c(-c3ccc(C(F)(F)F)c(SCCN4CCOCC4)c3)nn2CC(O)CN2CCC(Cc3ccccc3)CC2)C1 (stereo not drawn) [Example 704, 1-[5-(Methylsulfonyl)-3-{3-[(2-morpholin-4-ylethyl)sulfanyl]-4-(trifluoromethyl)phenyl}-4,5,6,7-tetrahydro-1H-pyrazolo[4,3-c]pyridin-1-yl]-3-[4-(phenylmethyl)piperidin-1-yl]propan-2-ol] |
| 6.66 | CC1CCN(C(=O)CSc2cc(-c3nn(CCCN4CCC(N5CCCC5=O)CC4)c4c3CN(S(C)(=O)=O)CC4)ccc2C(F)(F)F)CC1 [Example 90, 1-{1-[3-(5-Methanesulfonyl-3-{3-[2-(4-methyl-piperidin-1-yl)-2-oxo-ethylsulfanyl]-4-trifluoromethyl-phenyl}-4,5,6,7-tetrahydro-pyrazolo[4,3-c]pyridin-1-yl)-propyl]-piperidin-4-yl}-pyrrolidin-2-one] |
| 5.57 | O=c1[nH]nc(C2CCN(CC(O)Cn3nc(-c4ccc(C(F)(F)F)c(SCCN5CCCCC5)c4)c4c3CCNC4)CC2)[nH]1 (stereo not drawn) [Example 357, 5-{1-[2-Hydroxy-3-(3-{3-[(2-piperidin-1-ylethyl)sulfanyl]-4-(trifluoromethyl)phenyl}-4,5,6,7-tetrahydro-1H-pyrazolo[4,3-c]pyridin-1-yl)propyl]piperidin-4-yl}-2,4-dihydro-3H-1,2,4-triazol-3-one] |
| 6.24 | CN(C)C1CCN(C(=O)CSc2cc(-c3nn(CCCN4CCC(N5CCCC5=O)CC4)c4c3CN(S(C)(=O)=O)CC4)ccc2C(F)(F)F)CC1 [Example 87, 1-{1-[3-(3-{3-[2-(4-Dimethylamino-piperidin-1-yl)-2-oxo-ethylsulfanyl]-4-trifluoromethyl-phenyl}-5-methanesulfonyl-4,5,6,7-tetrahydro-pyrazolo[4,3-c]pyridin-1-yl)-propyl]-piperidin-4-yl}-pyrrolidin-2-one] |
| 7.07 | CS(=O)(=O)NC1CCN(CC(O)Cn2nc(-c3ccc(C(F)(F)F)c(SCC(=O)N4CCOCC4)c3)c3c2CCN(C(=O)CO)C3)CC1 (stereo not drawn) [Example 694, N-(1-{2-Hydroxy-3-[5-(hydroxyacetyl)-3-{3-[(2-morpholin-4-yl-2-oxoethyl)sulfanyl]-4-(trifluoromethyl)phenyl}-4,5,6,7-tetrahydro-1H-pyrazolo[4,3-c]pyridin-1-yl]propyl}piperidin-4-yl)methanesulfonamide] |
| 6.64 | CCN1CCc2c(c(-c3ccc(C(F)(F)F)c(SCC(=O)N4CCCC4)c3)nn2CC(O)CN2CCC(c3ccc(C#N)cc3)CC2)C1 (stereo not drawn) [Example 585, 4-{1-[3-(5-Ethyl-3-{3-[(2-oxo-2-pyrrolidin-1-ylethyl)sulfanyl]-4-(trifluoromethyl)phenyl}-4,5,6,7-tetrahydro-1H-pyrazolo[4,3-c]pyridin-1-yl)-2-hydroxypropyl]piperidin-4-yl}benzonitrile] |
| 6.57 | N#Cc1cccc(C2CCN(CC(O)Cn3nc(-c4ccc(C(F)(F)F)c(SCCN5CCCCC5)c4)c4c3CCNC4)CC2)c1 (stereo not drawn) [Example 426, 3-{1-[2-Hydroxy-3-(3-{3-[(2-piperidin-1-ylethyl)sulfanyl]-4-(trifluoromethyl)phenyl}-4,5,6,7-tetrahydro-1H-pyrazolo[4,3-c]pyridin-1-yl)propyl]piperidin-4-yl}benzonitrile] |
| 8.70 | CS(=O)(=O)N1CCc2c(c(-c3ccc(C(F)(F)F)c(SCC(=O)N4CCCC4)c3)nn2CC(O)CN2CCC(c3ccccn3)CC2)C1 (stereo not drawn) [Example 256, 1-[5-(Methylsulfonyl)-3-{3-[(2-oxo-2-pyrrolidin-1-ylethyl)sulfanyl]-4-(trifluoromethyl)phenyl}-4,5,6,7-tetrahydro-1H-pyrazolo[4,3-c]pyridin-1-yl]-3-(4-pyridin-2-ylpiperidin-1-yl)propan-2-ol] |
| 6.48 | CS(=O)(=O)N1CCc2c(c(-c3ccc(C(F)(F)F)c(SCC(=O)N4CCC(Cc5ccccc5)CC4)c3)nn2CCCN2CCC(N3CCCC3=O)CC2)C1 [Example 104, 1-{1-[3-(3-{3-[2-(4-Benzyl-piperidin-1-yl)-2-oxo-ethylsulfanyl]-4-trifluoromethyl-phenyl}-5-methanesulfonyl-4,5,6,7-tetrahydro-pyrazolo[4,3-c]pyridin-1-yl)-propyl]-piperidin-4-yl}-pyrrolidin-2-one] |
| 6.77 | CS(=O)(=O)N1CCc2c(c(-c3ccc(C(F)(F)F)c(SCCN4CCCC(F)C4)c3)nn2CCCN2CCC(N3CCCC3=O)CC2)C1 (stereo not drawn) [Example 17, 1-{1-[3-(3-{3-[2-(3-Fluoro-piperidin-1-yl)-ethylsulfanyl]-4-trifluoromethyl-phenyl}-5-methanesulfonyl-4,5,6,7-tetrahydro-pyrazolo[4,3-c]pyridin-1-yl)-propyl]-piperidin-4-yl}-pyrrolidin-2-one] |
| 6.38 | CS(=O)(=O)N1CCc2c(c(-c3ccc(C(F)(F)F)c(SCC(=O)Nc4ccc(F)cc4)c3)nn2CCCN2CCC(N3CCCC3=O)CC2)C1 [Example 84, N-(4-Fluoro-phenyl)-2-[5-(5-methanesulfonyl-1-{3-[4-(2-oxo-pyrrolidin-1-yl)-piperidin-1-yl]-propyl}-4,5,6,7-tetrahydro-1H-pyrazolo[4,3-c]pyridin-3-yl)-2-trifluoromethyl-phenylsulfanyl]-acetamide] |
| 6.60 | C[C@H](O)C(=O)N1CCc2c(c(-c3ccc(C(F)(F)F)c(SCCN4CCC(F)CC4)c3)nn2C[C@@H](O)CN2CCCCC2)C1 [Example 371, (2S)-1-{3-[3-{[2-(4-Fluoropiperidin-1-yl)ethyl]sulfanyl}-4-(trifluoromethyl)phenyl]-1-[(2S)-2-hydroxy-3-piperidin-1-ylpropyl]-1,4,6,7-tetrahydro-5H-pyrazolo[4,3-c]pyridin-5-yl}-1-oxopropan-2-ol] |
| 7.70 | CS(=O)(=O)N1CCc2c(c(-c3ccc(C(F)(F)F)c(SCCN4CCCCC4)c3)nn2CC(O)CN2CCN(c3ccccc3Cl)CC2)C1 (stereo not drawn) [Example 788, 1-[4-(2-Chlorophenyl)piperazin-1-yl]-3-[5-(methylsulfonyl)-3-{3-[(2-piperidin-1-ylethyl)sulfanyl]-4-(trifluoromethyl)phenyl}-4,5,6,7-tetrahydro-1H-pyrazolo[4,3-c]pyridin-1-yl]propan-2-ol] |
| 6.47 | CS(=O)(=O)N1CCc2c(c(-c3ccc(C(F)(F)F)c(SCCN4CCC(O)CC4)c3)nn2CCCN2CCC(N3CCCC3=O)CC2)C1 [Example 4, 1-{1-[3-(3-{3-[2-(4-Hydroxy-piperidin-1-yl)-ethylsulfanyl]-4-trifluoromethyl-phenyl}-5-methanesulfonyl-4,5,6,7-tetrahydro-pyrazolo[4,3-c]pyridin-1-yl)-propyl]-piperidin-4-yl}-pyrrolidin-2-one] |
| 6.77 | CS(=O)(=O)NC1CCN(CC(O)Cn2nc(-c3ccc(C(F)(F)F)c(SCCN4CCCC4)c3)c3c2CCN(S(C)(=O)=O)C3)CC1 (stereo not drawn) [Example 669, N-(1-{2-Hydroxy-3-[5-(methylsulfonyl)-3-{3-[(2-pyrrolidin-1-ylethyl)sulfanyl]-4-(trifluoromethyl)phenyl}-4,5,6,7-tetrahydro-1H-pyrazolo[4,3-c]pyridin-1-yl]propyl}piperidin-4-yl)methanesulfonamide] |
| 6.89 | OC(CN1CCC(c2cccc(Cl)c2)CC1)Cn1nc(-c2ccc(C(F)(F)F)c(SCCN3CCCCC3)c2)c2c1CCNC2 (stereo not drawn) [Example 468, 1-[4-(3-Chlorophenyl)piperidin-1-yl]-3-(3-{3-[(2-piperidin-1-ylethyl)sulfanyl]-4-(trifluoromethyl)phenyl}-4,5,6,7-tetrahydro-1H-pyrazolo[4,3-c]pyridin-1-yl)propan-2-ol] |
| 7.70 | CN(C)c1ccc2c(n1)n(C1CCN(CC(O)Cn3nc(-c4ccc(C(F)(F)F)c(SCCN5CCC(O)CC5)c4)c4c3CCN(S(C)(=O)=O)C4)CC1)c(=O)n2C (stereo not drawn) [Example 173, 5-(Dimethylamino)-3-[1-(2-hydroxy-3-{3-[3-{[2-(4-hydroxypiperidin-1-yl)ethyl]sulfanyl}-4-(trifluoromethyl)phenyl]-5-(methylsulfonyl)-4,5,6,7-tetrahydro-1H-pyrazolo[4,3-c]pyridin-1-yl}propyl)piperidin-4-yl]-1-methyl-1,3-dihydro-2H-imidazo[4,5-b]pyridin-2-one] |
| 6.47 | CS(=O)(=O)N1CCc2c(c(-c3ccc(C(F)(F)F)c(SCCN4CCC(Cc5ccccc5)CC4)c3)nn2CCCN2CCC(N3CCCC3=O)CC2)C1 [Example 876, 1-[1-(3-{5-(Methylsulfonyl)-3-[3-({2-[4-(phenylmethyl)piperidin-1-yl]ethyl}sulfanyl)-4-(trifluoromethyl)phenyl]-4,5,6,7-tetrahydro-1H-pyrazolo[4,3-c]pyridin-1-yl}propyl)piperidin-4-yl]pyrrolidin-2-one] |
| 6.15 | CC(=O)NC1CCN(CC(O)Cn2nc(-c3ccc(C(F)(F)F)c(SCCN4CCOCC4)c3)c3c2CCN(S(C)(=O)=O)C3)C1 (stereo not drawn) [Example 551, N-(1-{2-Hydroxy-3-[5-(methylsulfonyl)-3-{3-[(2-morpholin-4-ylethyl)sulfanyl]-4-(trifluoromethyl)phenyl}-4,5,6,7-tetrahydro-1H-pyrazolo[4,3-c]pyridin-1-yl]propyl}pyrrolidin-3-yl)acetamide] |
| 6.00 | CS(=O)(=O)N1CCc2c(c(-c3ccc(C(F)(F)F)c(SCCN4CCC(O)(c5ccccn5)CC4)c3)nn2C[C@@H](O)CN2CCOCC2)C1 [Example 728, 1-(2-{[5-{1-[(2S)-2-Hydroxy-3-morpholin-4-ylpropyl]-5-(methylsulfonyl)-4,5,6,7-tetrahydro-1H-pyrazolo[4,3-c]pyridin-3-yl}-2-(trifluoromethyl)phenyl]sulfanyl}ethyl)-4-pyridin-2-ylpiperidin-4-ol] |

pIC50: −log10 of the molar value.
